## AlphaSeq binding of Ab-91 heavy chain variants to a spike HR2 peptide

Binding partner: SARS-CoV-2 spike HR2 peptide, sequence PDVDLGDISGINAS.

Parent: Ab-91, a human scFv built as VL, a (GGGGS)3 linker, VH. Only the CDRs of the heavy chain vary.
VL: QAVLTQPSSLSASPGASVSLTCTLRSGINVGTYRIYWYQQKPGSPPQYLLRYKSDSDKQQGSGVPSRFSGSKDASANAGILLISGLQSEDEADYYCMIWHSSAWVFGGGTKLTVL
VH: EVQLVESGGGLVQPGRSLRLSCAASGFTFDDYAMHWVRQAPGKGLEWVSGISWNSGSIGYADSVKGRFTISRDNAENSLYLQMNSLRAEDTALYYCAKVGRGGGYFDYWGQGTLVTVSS

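The starting antibody came from a phage panning campaign against this peptide. In library AAYL51, one, two or three CDR residues were substituted; doubles and triples were drawn at random. In AlphaSeq, yeast of one mating type display the scFv and yeast of the other type display the target. Binding brings cells together so that they mate, and sequencing counts the barcode pairs among the diploids. Scores were corrected for input abundance and mapped to Kd with protein pairs of known affinity run in the same pool. The assay was run in three technical replicates.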

Positions count from residue 1 of the parent VH; G56W puts W in place of G.
All variants listed here change G104 of the VH, counted from its first residue.
Values are log10 of the apparent Kd in nM; lower means stronger binding.
A mean of the replicates is given; it leaves out those without a signal.
"no signal" means that the variant was in the library but no mating with the target was seen in any replicate; the authors take this as a sign of poor binding, and no number exists.

G56W/S57I/G104V: 3.82 (1 of 3 replicates; controls 3 of 9).
D62E/G104H/Y105R: 1.21 (3 of 3 replicates; controls 3 of 9).
A61D/K65G/G104W: 2.78 (3 of 3 replicates; controls 3 of 9).
D30P/N54P/G104P: 5.31 (3 of 3 replicates; controls 5 of 9).
G50Y/A61E/G104V: 5.09 (2 of 3 replicates; controls 1 of 9).
I51S/G104H/Y105H: 3.97 (2 of 3 replicates; controls 3 of 9).
Y60Q/A61V/G104Q: no signal (0 of 3 replicates; controls 0 of 9).
D31H/S52Y/G104T: no signal (0 of 3 replicates; controls 0 of 9).
W53H/G104I/F106N: no signal (0 of 3 replicates; controls 0 of 9).
A61Y/G104I: no signal (0 of 3 replicates; controls 0 of 9).
F27D/G104P/Y105K: 4.44 (1 of 3 replicates; controls 1 of 9).
A61K/G103E/G104T: no signal (0 of 3 replicates; controls 0 of 9).
M34D/G50Q/G104V: no signal (0 of 3 replicates; controls 1 of 9).
S52R/G59E/G104N: 4.38 (1 of 3 replicates; controls 1 of 9).
Y32E/N54G/G104Q: 4.27 (2 of 3 replicates; controls 1 of 9).
F29T/Y32L/G104H: no signal (0 of 3 replicates; controls 1 of 9).
T28R/S55C/G104Y: 1.84 (3 of 3 replicates; controls 1 of 9).
A33T/H35Q/G104N: 5.16 (1 of 3 replicates; controls 1 of 9).
K65G/G104P: 5.25 (2 of 3 replicates; controls 7 of 9).
G50T/S63G/G104I: 4.83 (2 of 3 replicates; controls 2 of 9).
A61F/D62H/G104E: no signal (0 of 3 replicates; controls 0 of 9).
A61P/G104C/Y108D: 5.69 (1 of 3 replicates; controls 3 of 9).
F29D/G104V: no signal (0 of 3 replicates; controls 0 of 9).
G104A: no signal (0 of 3 replicates; controls 1 of 9).
S52L/G104K: no signal (0 of 3 replicates; controls 0 of 9).
D31I/I51Y/G104K: 4.94 (2 of 3 replicates; controls 4 of 9).
G26F/F29M/G104K: no signal (0 of 3 replicates; controls 2 of 9).
D30K/G100K/G104L: 4.58 (1 of 3 replicates; controls 1 of 9).
D31K/S57I/G104C: no signal (0 of 3 replicates; controls 1 of 9).
T28W/F29V/G104R: no signal (0 of 3 replicates; controls 0 of 9).
A33F/N54E/G104V: 3.34 (1 of 3 replicates; controls 1 of 9).
S52K/V99T/G104C: 4.54 (1 of 3 replicates; controls 1 of 9).
G56L/A61V/G104R: no signal (0 of 3 replicates; controls 3 of 9).
G50L/G59D/G104I: 5.21 (1 of 3 replicates; controls 0 of 9).
F27G/G59P/G104Q: no signal (0 of 3 replicates; controls 3 of 9).
G100T/G103P/G104W: 4.21 (2 of 3 replicates; controls 2 of 9).
G50W/A61N/G104A: 4.92 (1 of 3 replicates; controls 4 of 9).
T28R/Y32I/G104P: 4.54 (1 of 3 replicates; controls 1 of 9).
F29A/S55Q/G104C: 4.83 (2 of 3 replicates; controls 9 of 9).
G26M/Y32P/G104Y: 4.52 (1 of 3 replicates; controls 1 of 9).
Y32G/G104H: 4.45 (1 of 3 replicates; controls 5 of 9).
G100A/R101W/G104K: 3.45 (2 of 3 replicates; controls 0 of 9).
G100S/R101L/G104R: no signal (0 of 3 replicates; controls 0 of 9).
D31C/D62P/G104V: 5.40 (3 of 3 replicates; controls 7 of 9).
A33Q/S55R/G104C: no signal (0 of 3 replicates; controls 1 of 9).
G50C/V64M/G104M: no signal (0 of 3 replicates; controls 0 of 9).
W53P/G104F: 3.97 (1 of 3 replicates; controls 4 of 9).

4 of these entries, quoted again:

{"changes": "F29T/Y32L/G104H", "mean, log10 nM": "no signal", "detected": "0/3", "signal with controls": "1/9"}
{"changes": "Y60Q/A61V/G104Q", "mean, log10 nM": "no signal", "detected": "0/3", "signal with controls": "0/9"}
{"changes": "G50T/S63G/G104I", "mean, log10 nM": "4.83", "detected": "2/3", "signal with controls": "2/9"}
{"changes": "K65G/G104P", "mean, log10 nM": "5.25", "detected": "2/3", "signal with controls": "7/9"}

Empty control strains, which show no peptide, gave a signal in 21% of pairings with library AAYL51; the median was 4.54 and 95% of these signals were weaker than 3.26. No background was subtracted. Also given: how often the same scFv was detected with the empty control strains.

Data: MIT Lincoln Laboratory AlphaSeq set, Engelhart et al. 2022, doi:10.1038/s41597-022-01779-4, as distributed in FLAb.